Experimental data published in patent US9856499B2, “Long chain organic acid bioproduction” (dated 2018).

Columns and labels:
[1] = system: C. acetobutylicum; conditions: Exp. 6-7, taken from outside literature, cultures A=1.0; cited from earlier work
[2] = system: C. acetobutylicum; experiment: Redox potential of the culture on TNT addition; conditions: addition to cultures in exponential growth
From the text: We found TNT addition alters the redox potential of the culture. […] This initial spike was followed by a persistent increase in the redox potential of the cultures receiving TNT when compared to the redox level of the control culture.

[3] = system: C. acetobutylicum; experiment: TNT assay in C. acetobutylicum culture (TNT degradation rate)
Description: TNT concentration in the culture medium was followed by a spectrometric protocol modified from Jenkins et al (Jenkins and Walsh 1992; Watrous et al. 2003). Freshly made sodium sulfite solution (0.2 g/mL) in 50 mM pH 8.0 Tris-HCl buffer reacts with TNT solution to form a colored complex with maximum absorption at A414 that remains stable for hours under assay conditions. A414 readings increase linearly up to a 500 μM TNT concentration.
Single C. acetobutylicum colonies from freshly grown plates were inoculated into buffered CGM medium with appropriate antibiotics and incubated overnight as seed cultures. An appropriate amount from seed culture was used for the subculture to yield a starting A600 of 0.1. The culture was incubated at 37° C. and growth (A600) measured periodically. TNT degradation rate was assayed during early-exponential phase (A600 0.3), mid-exponential phase (A600 1.0) and stationary phase (24 hour culture with A600 varied) by diluting the culture at different times into fresh medium containing 400 μM TNT. […]
In order to determine the effect of culture dilution on TNT degradation and confirm the linear range of the measurements, five C. acetobutylicum cultures were prepared to ultimately yield 10×, 20×, 30×, 40×, and 50× dilutions respectively. […] Once the three time samples were collected and centrifuged at 13000 rpm for 10 minutes, the A414 absorbance of each supernatant was measured, and the dilution factors were considered to calculate the specific TNT degradation rates. Since the time of the initial rate measurement was short after the dilution compared to a typical lag phase recovery of growth rate the measured rates are considered indicative of the metabolism of the cell at the time points used.
A simplified Jenkins TNT assay protocol was adapted in our experiments. […] The measured TNT concentration in the culture declined with time during the assay, and the rate of decrease had diminished considerably after 1 hr.
Therefore the maximal specific TNT degradation rate as measured by this method was used in the figures and tables. […]

[4] = system: C. acetobutylicum ATCC 824; experiment: Hydrogen production / H2/CO2 ratio and reductant distribution on TNT addition
Description: TNT can act as an alternative electron acceptor for the hydrogenase enzyme, so the effect of TNT addition on H2 production in cultures during exponential growth was determined by measuring the H2/CO2 ratio.
The detailed redox calculations shown in Table 3 analyzes the redistribution of reductant from production of hydrogen to more production of butyrate during the time when TNT was present and being reduced. The level of TNT present (400 μM) would not consume much of the reductant available directly in this experiment, and the amount would be expected to be 1 mM or less based on the early reduction steps of TNT under these conditions as analyzed previously (Ahmad and Hughes 2000; Khan et al. 1997; Padda et al. 2000).
Calculations of the observed reductant consumed in the formation of acids either before or during TNT transformation and the resulting reducing equivalents available for formation of hydrogen give values of 1.30 for the hydrogen/CO2 ratio before TNT addition and 1.05-1.12 during TNT degradation. These values are very close to the values measured experimentally (not shown), before TNT addition of 1.36 and during TNT degradation of 1.18.
If the data are presented in a form where the fraction of total reductant formed from glucose metabolism, i.e. reduced ferredoxin and NADH, that goes to either formation of hydrogen or butyrate is calculated, we can analyze the proportion of reductant that is consumed in butyrate formation in the culture during the one hour period before TNT addition and it is 35% of the total reductant. If the same calculation is done on the culture during the one hour period of TNT degradation a proportion of 44-47% of total reductant that goes into formation of butyrate is determined.

[5] = system: C. acetobutylicum 824; experiment: Metabolites of cultures before and after TNT addition (gas chromatography), strain 824
Description: (§1) Cell growth was monitored by A600 with a Beckman DU-800 spectrophotometer. On fermentor, cell growth was monitored by a cell density sensor. The concentrations of butanol, acetone, ethanol, butyrate, and acetate were determined using gas chromatography with a Hewlett-Packard 5890 Series II instrument (Hewlett-Packard Company, Palo Alto, Calif.) as described previously (Scotcher and Bennett 2005; Zhao et al. 2003; Zhao et al. 2005). Glucose was measured by HPLC as described (Wang et al. 2011).
(§2) We measured the acid metabolites formed during the time after TNT addition. A culture of C. acetobutylicum grown under the conditions where the TNT degradation rate was analyzed was processed and subjected to gas chromatography to determine the metabolites present in the pre-TNT added culture and in the culture 1 hour after the TNT addition, a time when the starting TNT had been depleted. The culture continued to grow during this time and the metabolism of glucose continued during the 1 hour period and seemed unchanged in rate as judged by the total production of acids during this time.

[6] = system: C. acetobutylicum M5; experiment: Metabolites of cultures before and after TNT addition (gas chromatography), strain M5
Description: as §1, §2

[7] = 824, during TNT (formed over the period)
[8] = M5, during TNT (formed over the period)

In the case of Cc1c([N+](=O)[O-])cc([N+](=O)[O-])cc1[N+](=O)[O-], the “TNT deg. Rate” value [1] is given as 2.0 mM/Hour/A600, the “effect on redox potential of the culture” value [2] is given as “dose dependent spike in the redox potential” and the TNT degradation rate ([3]; ATCC824, series of five culture experiments) is given as 15.2 mM/h/A600. The “TNT deg. Rate” value ([3]; Exp. 1-5, cultures A=0.3) was 15.2 mM/Hour/A600, the “initial TNT degradation rate” value ([3]; all strains tested, early exponential phase (A600 0.3), 400 μM TNT) was 10,000-12,000 μM/Hour/A600 and the “effect on hydrogen production” value ([4]; cultures during exponential growth) was “decrease of hydrogen production”. The “hydrogen/CO2 ratio (measured experimentally)” value ([4]; during TNT degradation) was 1.18, the “hydrogen/CO2 ratio (calculated from reductant consumed in acids)” value ([4]; during TNT degradation, 400 μM TNT) was 1.05-1.12 and the “proportion of total reductant that goes into formation of butyrate” value ([4]; one hour period of TNT degradation) was 44-47%. For the same molecule, the Acetate ([5]; 824, 1 hr post TNT) was 5.39 mM, the Acetone ([5]; 824, 1 hr post TNT) was 0.03 mM and the Butanol ([5]; 824, 1 hr post TNT) was 0 mM. For the same molecule, the Butyrate ([5]; 824, 1 hr post TNT) was 10.11 mM, the Ethanol ([5]; 824, 1 hr post TNT) was 0.29 mM and the Acetate [5, 7] was 1.63 mM. For the same molecule, the Acetone [5, 7] was 0 mM, the Butanol [5, 7] was 0 mM and the Butyrate [5, 7] was 5.8 mM. For the same molecule, the Ethanol [5, 7] was 0.06 mM, the “metabolic pattern after TNT addition (butyrate, acetate)” value ([5]; variety of Clostridia cultures) was “more butyrate and less acetate” and the Acetate ([6]; M5, 1 hr post TNT) was 4.53 mM. For the same molecule, the Acetone ([6]; M5, 1 hr post TNT) was 0 mM, the Butanol ([6]; M5, 1 hr post TNT) was 0 mM and the Butyrate ([6]; M5, 1 hr post TNT) was 11.37 mM. It also gave an Ethanol ([6]; M5, 1 hr post TNT) of 0 mM, an Acetate [6, 8] of 0.82 mM and an Acetone [6, 8] of 0 mM. It also gave a Butanol [6, 8] of 0 mM, a Butyrate [6, 8] of 7.05 mM and an Ethanol [6, 8] of 0 mM.

Like-named read-outs stand apart in the source and are kept apart here. This is a selection: effects in other tests are not listed, and their absence says nothing.
